Where two headings read alike, the source gives them in different places.

For data set [1] the following is noted: n = 7, mean (SEM). How it is done:
To each sample of participant plasma or urine, A. aerogenes sulfatase (2.5 µL; 10–20 units/mL), and E. coli glucuronidase (2.5 µL; ∼5,000–50,000 units/mL) were used to release the analytes from their sulfate and β-D-glucuronic acid esters (Phase II metabolites). For calibration and validation samples, aqueous glycerol (5 µL) was added to mimic the enzymatic hydrolysis. For all analyses, 1% ascorbic acid (10 µL) was added prior to sample work up to limit oxidation. Samples were incubated (37°C) for 20 min and placed on ice to halt enzymatic activity. […] The supernatant was filtered (0.22 µm spinfilter) at 10,000 g for 5 min at 4°C and used for analysis. To optimize peak shape during analysis, the concentration of organic solvent (sample filtrate) was adjusted to a 60:40 ratio with HPLC grade water for TT analysis and a 90:10 ratio with 1% aqueous formic acid for CQA analysis.
HPLC-MS/MS was performed at the Oregon Health & Science University’s (OHSU) Bioanalytical Shared Resource/Pharmacokinetics Core (Portland, OR, United States). […]
Sample preparation and analysis: Plasma and urine sample preparation and analyte quantification by LC-MS/MS were performed in duplicate for each time point and visit (Sections 2.2–2.4). […]

The conditions of data set [2]: encapsulated ECa 233, healthy adults; ref Songvut et al., 2019; cited from earlier work.
Data set [3] in a line: Analyte storage stability in human urine. The conditions noted are these: low concentration.

Usually Tmax stands for the time from dosing to the highest level. With Asiaticoside, the results for the “Total urinary excretion (12 hr)” value in data set [1] (single oral 2 g CAW (CAP)) and in data set [1] (single oral 4 g CAW (CAP)) were 20.68 (6.7) µg and 18.6 (4.5) µg, respectively. Also, in data set [2], the Tmax is 1 to 2 h. Also, the “Stability, percent of nominal concentration” value in data set [3] (condition 1 long-term storage at −80°C) is recorded as 173%; in data set [3] (condition 3 overnight storage at 4°C) it was 91%.

Source of the values: publication PMC10481538, “Bioanalytical method validation and application to a phase 1, double-blind, randomized pharmacokinetic trial of a standardized Centella asiatica (L.) Urban water extract product in healthy older adults” (Frontiers in Pharmacology, 2023).
